# From patent publication US10844044B2 (Vanderbilt University, priority 2018, dated 2020)
# Target: WDR5 (Homo sapiens (Human), UniProt P61964)
# Assay: TR-FRET binding assay (displacement of 10mer-Thr-FAM probe from WDR5)
# Details: read-out: Ki for Inhibition of WDR5 by TR-FRET assay
smiles,measurement,value
"Cn1ccn(Cc2cc(C(=O)NCc3ccc(Cl)c(Cl)c3)cc(-c3ccccc3C(F)(F)F)c2)c1=N [Example 90, N-(3,4-Dichlorobenzyl)-5-((2-imino-3-methyl-2,3-dihydro-1H-imidazol-1-yl)methyl)-2′-(trifluoromethyl)-[1,1′-biphenyl]-3-carboxamide]",Ki,0.46 nM
